Measurements reported in ChEMBL document CHEMBL3393009 (J Med Chem, 2015).

Amino acid sequences for entries named in this document (tags omitted). A change or cut given only in a name is not applied to a line headed by its entry.
UniProt Q5S007: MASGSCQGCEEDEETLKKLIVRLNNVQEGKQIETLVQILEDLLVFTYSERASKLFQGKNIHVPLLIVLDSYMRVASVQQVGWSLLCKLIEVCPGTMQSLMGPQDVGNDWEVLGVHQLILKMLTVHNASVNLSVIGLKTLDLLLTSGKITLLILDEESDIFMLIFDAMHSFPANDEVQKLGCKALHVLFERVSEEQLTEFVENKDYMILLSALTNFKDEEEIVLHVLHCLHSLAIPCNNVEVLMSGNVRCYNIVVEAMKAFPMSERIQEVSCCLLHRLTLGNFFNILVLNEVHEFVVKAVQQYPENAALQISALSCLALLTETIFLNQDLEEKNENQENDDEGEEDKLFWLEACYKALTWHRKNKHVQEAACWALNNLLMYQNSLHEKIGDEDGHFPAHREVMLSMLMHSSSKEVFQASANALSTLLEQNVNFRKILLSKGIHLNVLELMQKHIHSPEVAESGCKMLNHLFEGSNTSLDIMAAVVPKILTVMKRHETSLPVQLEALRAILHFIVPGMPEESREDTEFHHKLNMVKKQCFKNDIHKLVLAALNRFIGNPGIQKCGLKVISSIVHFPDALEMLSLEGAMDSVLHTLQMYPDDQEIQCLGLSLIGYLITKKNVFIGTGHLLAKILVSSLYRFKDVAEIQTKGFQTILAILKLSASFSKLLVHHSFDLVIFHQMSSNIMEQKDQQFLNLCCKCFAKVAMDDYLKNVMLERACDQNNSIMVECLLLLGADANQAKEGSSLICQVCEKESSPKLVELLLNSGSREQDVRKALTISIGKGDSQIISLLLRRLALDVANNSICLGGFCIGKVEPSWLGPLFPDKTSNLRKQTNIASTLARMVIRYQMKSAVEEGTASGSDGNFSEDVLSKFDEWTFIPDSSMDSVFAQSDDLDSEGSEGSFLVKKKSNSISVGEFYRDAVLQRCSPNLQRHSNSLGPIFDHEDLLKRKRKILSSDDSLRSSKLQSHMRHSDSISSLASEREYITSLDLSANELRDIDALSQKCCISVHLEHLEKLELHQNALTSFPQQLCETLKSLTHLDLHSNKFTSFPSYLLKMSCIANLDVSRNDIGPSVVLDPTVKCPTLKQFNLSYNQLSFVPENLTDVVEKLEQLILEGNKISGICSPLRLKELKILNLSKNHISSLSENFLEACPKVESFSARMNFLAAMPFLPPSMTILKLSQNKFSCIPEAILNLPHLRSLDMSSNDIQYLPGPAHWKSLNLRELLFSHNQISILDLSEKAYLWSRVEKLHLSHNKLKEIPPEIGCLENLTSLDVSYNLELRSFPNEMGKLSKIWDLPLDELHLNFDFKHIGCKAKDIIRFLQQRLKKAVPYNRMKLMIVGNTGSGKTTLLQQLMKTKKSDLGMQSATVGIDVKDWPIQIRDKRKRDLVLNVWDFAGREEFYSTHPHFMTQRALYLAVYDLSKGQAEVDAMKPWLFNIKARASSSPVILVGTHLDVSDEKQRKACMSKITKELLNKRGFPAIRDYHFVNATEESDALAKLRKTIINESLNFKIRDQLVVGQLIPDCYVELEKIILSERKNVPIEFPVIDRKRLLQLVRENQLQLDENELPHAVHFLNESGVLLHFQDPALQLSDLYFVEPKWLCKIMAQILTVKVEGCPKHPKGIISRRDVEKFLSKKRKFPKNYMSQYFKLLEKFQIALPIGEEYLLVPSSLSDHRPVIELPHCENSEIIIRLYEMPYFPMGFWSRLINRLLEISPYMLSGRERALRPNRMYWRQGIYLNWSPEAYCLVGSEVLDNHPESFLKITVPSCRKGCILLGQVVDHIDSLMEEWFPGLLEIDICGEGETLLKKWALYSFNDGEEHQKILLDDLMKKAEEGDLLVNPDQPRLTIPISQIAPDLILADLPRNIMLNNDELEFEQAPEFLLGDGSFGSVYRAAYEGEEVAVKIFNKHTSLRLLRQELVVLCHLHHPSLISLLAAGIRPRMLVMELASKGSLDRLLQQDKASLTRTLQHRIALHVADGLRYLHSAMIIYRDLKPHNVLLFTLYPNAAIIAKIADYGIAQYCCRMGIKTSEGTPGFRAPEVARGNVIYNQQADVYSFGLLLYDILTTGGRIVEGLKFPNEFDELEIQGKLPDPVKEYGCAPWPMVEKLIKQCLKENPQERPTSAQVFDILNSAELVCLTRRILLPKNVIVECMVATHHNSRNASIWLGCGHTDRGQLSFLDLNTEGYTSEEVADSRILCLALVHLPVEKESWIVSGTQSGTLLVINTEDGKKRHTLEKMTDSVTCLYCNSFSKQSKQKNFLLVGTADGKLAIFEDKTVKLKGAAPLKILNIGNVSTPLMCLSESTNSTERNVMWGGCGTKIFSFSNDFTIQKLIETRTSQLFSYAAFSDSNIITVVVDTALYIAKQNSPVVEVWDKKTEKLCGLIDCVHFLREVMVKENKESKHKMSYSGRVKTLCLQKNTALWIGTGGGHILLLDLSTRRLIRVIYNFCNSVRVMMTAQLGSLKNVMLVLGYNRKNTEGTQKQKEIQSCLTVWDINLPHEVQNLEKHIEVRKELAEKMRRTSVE

What was measured:
[1] = molecular target: T1, Serine/threonine-protein kinase 3 (Homo sapiens, UniProt Q13188); assay: Inhibition of human recombinant MST2 using Ser/Thr peptide 7 substrate after 45 mins by Z-Lyte assay
T1 sequence (Q13188 whole entry): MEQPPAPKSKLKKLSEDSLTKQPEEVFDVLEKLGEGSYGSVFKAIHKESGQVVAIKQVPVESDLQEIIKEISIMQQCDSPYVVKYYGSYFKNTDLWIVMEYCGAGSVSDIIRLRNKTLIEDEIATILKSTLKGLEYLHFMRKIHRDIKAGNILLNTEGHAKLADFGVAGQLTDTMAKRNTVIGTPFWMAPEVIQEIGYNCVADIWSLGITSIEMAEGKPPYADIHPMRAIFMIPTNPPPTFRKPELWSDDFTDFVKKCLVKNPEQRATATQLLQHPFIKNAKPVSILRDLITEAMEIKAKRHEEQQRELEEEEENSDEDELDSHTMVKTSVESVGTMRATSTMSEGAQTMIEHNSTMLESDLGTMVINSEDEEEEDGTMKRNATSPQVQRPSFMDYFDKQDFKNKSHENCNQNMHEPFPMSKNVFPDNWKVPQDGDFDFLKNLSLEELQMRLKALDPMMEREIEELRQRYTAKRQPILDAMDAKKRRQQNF
Outline: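 Z-Lyte FRET assay, final 2 μM Ser/Thr peptide 7, 75 μM ATP, 18 nM kinase. Buffer 50 mM HEPES (pH 7.0 for MST2, 7.5 for MST4), 10 mM MgCl2, 1 mM EGTA, 0.01% Brij-35. Stopped at 45 min (MST2) or 60 min (MST4). Excitation 400 nm, emission 445/520 ratio converted to percent phosphorylation for IC50.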

[2] = molecular target: T2, Leucine-rich repeat serine/threonine-protein kinase 2 (Homo sapiens, UniProt Q5S007); assay: Inhibition of GST-tagged truncated human recombinant LRRK2 using fluorescein-labeled LRRKtide peptide substrate incubated for 2 hrs
Outline: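 LRRK2 enzyme with fluorescein-LRRKtide in 50 mM HEPES pH 7.5, 3 mM MgCl2, 2 mM DTT, 0.01% Brij35. Final levels: 100 nM LRRKtide, 50 μM ATP, 1.7 μg/mL enzyme. Compound 11-point half-log series, top 32 μM. Reaction at room temperature, 2 h for wild type and 90 min for mutant. Stopped with EDTA plus Tb anti-phospho-ERM. TR-FRET 520/495 ratio read after 1 h. Geometric mean, n ≥ 2.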

[3] = molecular target: T2, Leucine-rich repeat serine/threonine-protein kinase 2; assay: Inhibition of full length LRRK2 (unknown origin) expressed in HEK293 cells assessed as reduction in S935 phosphorylation incubated for 90 mins by ELISA method; format: cell-based
Outline: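 HEK293 cells transiently transfected with full-length LRRK2 (Lipofectamine 2000), then grown overnight in DMEM + 10% FBS. Plated at 10 000 cells/well and treated with a compound dose series for 90 min at 37 °C. Lysed with phosphatase/protease inhibitors. LRRK2 captured with anti-LRRK2 antibody, detected with anti-pS935 (1:2000) plus HRP secondary, chemiluminescent read-out. Geometric mean, n ≥ 2.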

SMILES	IC50 [1]	IC50 [2]	IC50 [3]
N#Cc1cccc(-c2c[nH]c3ncnc(N4CC5CCOC5C4)c23)c1 (stereo not given)	626 nM	139 nM	3690 nM
Cc1nc([C@H]2CN(c3ncnc4[nH]cc(-c5cccc(C#N)c5)c34)CCO2)no1	–	204 nM	–
Cc1nc([C@@H]2CN(c3ncnc4[nH]cc(-c5cccc(C#N)c5)c34)CCO2)no1	–	–	133 nM
